Source: ChEMBL document CHEMBL1134834, “Quinoxalinylethylpyridylthioureas (QXPTs) as potent non-nucleoside HIV-1 reverse transcriptase (RT) inhibitors. Further SAR studies and identification of a novel orally bioavailable hydrazine-based antiviral agent” (J Med Chem, 2001)

Target: Human immunodeficiency virus type 1 reverse transcriptase (Human immunodeficiency virus 1, UniProt Q72547)
Assay: Inhibition of HIV-1 wild-type RT

SMILES | Ki
S=C(NCCOc1nc2cc(Cl)ccc2n2cccc12)Nc1ccc(Br)cn1 | 53 nM
O=C(NNc1nc2ccccc2n2cccc12)Nc1ccc(Br)cn1 | 2600 nM
